# Giardia kill: Giardia lamblia killing; Giardia lamblia trophozoite viability; activity change, % at 7.66 µM, hits read low; actives 0.15% (n = 340,000); AID 540267; in the data active = activity change below about -80%; inconclusive = between about -30% and that limit;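 note: parasites exposed to compound for two days anaerobically before the ATP read; % is set by controls: 0 for no effect and ±100 for the full control effect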
#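 Trophozoites 100 cells/well + cpd; 48 hrs, 37 deg C, anaerobic. ATPLite 1-Step added, 15-30 min RT, luminescence read (ATP-based viability).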
# Rango release inh: prevents RanGTP from dissociating the Rango-importin beta complex; Biochemical FRET Rango-importin beta, RanGTP-induced dissociation; O95149+P62826; actives 0.071% (n = 340,000); AID 540253; Potency, µM (titrated, usually from 46.1 µM), for inactives: top-dose activity change, negative = inhibition; note: potency is the fitted concentration of half-maximal effect; % of control where 0% means no effect; nearly all actives have a fitted effect of over 45% in size
#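 Rango (0.1 uM)–importin beta (0.25 uM) complex; RanGTP-RCC1 trigger; 45 min RT; CFP/YFP FRET read.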
# CCT modulator: cytosolic chaperonin activity modulation | purified chaperonin ATPase assay, HTRF ADP detection, 30 min | activity change, % (test concentration not listed), hits read low | actives 0.3% (n = 360,000) | AID 651819; in the data active = activity change below about -30%; note: % is set by controls: 0 for no effect and ±100 for the full control effect
#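 We incubate TRiC, 40 or 20 nM final, with library compounds at 76 uM and 10 uM ATP for 30 min at 37 °C. ADP formed is detected with Transcreener HTRF reagents after 30 min at room temperature.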
# Rango-impB inh: prevents formation of the Rango-importin beta complex | Q14974 | Rango CFP/YFP FRET sensor + importin beta, 45 min | Potency, µM (doses to about 92.2 µM), inactives show top-dose inhibition of complex formation | actives 0.031% (n = 340,000);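 note: potency is the fitted concentration of half-maximal effect; 0% = DMSO wells and 100% = buffer wells lacking importin beta; nearly all actives have a fitted effect of over 15% in size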
#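 Inhibition scored from the CFP 486 nm/YFP 530 nm FRET ratio 45 min after adding 0.125 microM importin beta to 50 nM Rango biosensor preincubated 5 min with compound (room temperature, PBS with DTT, Tween-20, BSA). No-importin wells as positive control.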
# MmCpn inh: blocks the Methanococcus maripaludis chaperonin Mm-Cpn | actives 0.031% (n = 330,000) | AID 504842 | purified Mm-Cpn ATPase, ADP Transcreener TR-FRET | Potency, µM (titrated, usually from 76.9 µM), for inactives: at the top dose activity, negative = inhibition, actives largely listed as inhibitors; active = well fitted inhibition curve with a large enough effect; inconclusive = small, poorly fitted or top-dose-only effect; note: potency is the fitted concentration of half-maximal effect; % is set by controls: 0 for no effect and ±100 for the full control effect; nearly all actives have a fitted effect of over 80% in size
#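 Eu-cryptate anti-ADP/ADP-d2 competition gives a ratio inversely related to ADP. Enzyme at 25 nM was pre-exposed to compound for 10 min, then given 10 uM ATP for 30 min, 37°C throughout.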
# An asterisk follows results filed as active; u = inconclusive; x = no result given; [ ] = another dose, or the depositor's remark. Sampled rows, rich in hits. Any-hit rate of the full collection: about 0.53%. Unless noted, calls come from the whole dose curve.
Compound | Giardia kill | Rango release inh | CCT modulator | Rango-impB inh | MmCpn inh
CC(=O)c1ccc(C2CC34CNS(=O)(=O)C3CC2O4)cc1 (configuration not stated) | 3 | x | x | x | x
CCc1nn(-c2ccccc2)c2c1-c1cc(OC)c(OC)cc1C1(N2)C(=O)Nc2ccccc21 (configuration not stated) | 14 | 16µM* | -1 | u | 0%
O=c1c2oc3nc4c(cc3c2ncn1CCCc1ccccc1)CCCC4 | 9 | 1% | -32* | -1% | 1%
c1nc(NCc2ccc3c(c2)OCO3)c2[nH]cnc2n1 | -14 | x | x | x | x
CC(=O)c1cc2c(C)c(C(=O)c3ccccc3)oc2cc1O | -7 | u | -8 | 6.5µM* | -1%
COc1ccc(OC)c(/C=C(\C)C(=O)c2c(C)cc(C)[nH]c2=O)c1 | -17 | 4% | -42* | 0% | x
COc1ccc(/C=C(\C)C(=O)c2c(C)cc(C)[nH]c2=O)cc1 | 13 | -9% | 2 | 2% | x
O=C(Nc1ccc2nc(-c3ccco3)c(-c3ccco3)nc2c1)N1CCCC1 | 12 | x | x | x | x
CC(NC(=O)C1CC=CCC1C(=O)O)C1CC2CCC1C2 (configuration not stated) | 9 | 2% | 0 | 4% | 0%
CC(NC(=O)c1ccc(N(C)C)cc1)C1CC2CCC1C2 (configuration not stated) | -21 | 5% | -44* | -1% | -11%
CC(NC(=O)C1CCCC1)C1CC2CCC1C2 (configuration not stated) | -9 | -12% | -41* | 0% | 0%
COc1ccc(C2CC(c3cccs3)=NN2C(=O)CSc2nc(=O)n3ccc(C)cc3n2)cc1 (configuration not stated) | 2 | 0% | -46* | 3% | u
CCN(CC)C(=O)CSc1nc2cc3c(cc2c(=O)n1Cc1ccco1)OCO3 | 27 | -3% | -34* | u | 1%
CCC(C)NC(=O)CSc1nc2cc3c(cc2c(=O)n1Cc1ccco1)OCO3 (configuration not stated) | -5 | 0% | -2 | 0% | 3%
O=C(CCCSc1nc(-c2ccco2)cc(C(F)(F)F)n1)NCC1CCCO1 (configuration not stated) | 7 | 10% | -1 | -4% | 0%
O=C(CCSc1nc(-c2ccco2)cc(C(F)(F)F)n1)NCC1CCCO1 (configuration not stated) | 11 | 26µM* | -6 | u | -2%
O=C(/C=C/c1ccc([N+](=O)[O-])s1)N1CCCCC1 | -82* | -24% | -1 | -6% | -1%
O=C(/C=C/c1ccc([N+](=O)[O-])s1)N1CCCC1 | -87* | -24% | 0 | 1% | -2%
Clc1nc(NCc2ccco2)c2[nH]cnc2n1 | -25 | x | x | x | x
Oc1ccc(N2CCN(C(c3ccc(Cl)cc3)c3nnnn3Cc3ccc(F)cc3)CC2)cc1 (configuration not stated) | 13 | x | x | x | x
CC(C)c1nnc(NC(=O)CCC(=O)N2CCN(c3ccc(Cl)cc3)CC2)s1 | -15 | -11% | -2 | 0% | -1%
CC(C)c1nnc(NC(=O)CCC(=O)N2CCN(Cc3ccccc3)CC2)s1 | 26 | 3% | -43* | 1% | -1%
COc1ccc(-c2nc(NC(=O)CSCCO)sc2C)cc1 | -10 | 0% | -56* | -3% | -2%
O=C(/C=C/Nc1ccc(F)cc1Br)c1ccccc1 | -89* | -9% | -7 | 1% | -1%
Cc1ccc(S(=O)(=O)N2CCN(C(=O)N(C)C)CC2)cc1C | 4 | -3% | -52* | -3% | 0%

# Just MmCpn inh and Giardia kill (2 entries from above):
smiles	MmCpn inh	Giardia kill
COc1ccc(OC)c(/C=C(\C)C(=O)c2c(C)cc(C)[nH]c2=O)c1	x	-17
COc1ccc(/C=C(\C)C(=O)c2c(C)cc(C)[nH]c2=O)cc1	x	13

# (further entries)
Compound | Giardia kill | Rango release inh | CCT modulator | Rango-impB inh | MmCpn inh
O=C(/C=C/c1cccnc1)c1ccc([N+](=O)[O-])cc1 | 42 | 0% | -4 | 0% | -1%
COc1cc(C(=O)/C=C/c2cccnc2)c([N+](=O)[O-])cc1OC | -90* | 4% | -2 | 7% | 1%
COc1ccc(CCn2c3c(c(=O)[nH]c2=S)CN(c2ccccc2)CN3)cc1OC | -9 | x | x | x | x
COc1ccc(NC(=O)/C(N=Nc2ccc(Cl)c(S(=O)(=O)Nc3ccc(Cl)cc3)c2)=C(\C)O)cc1 | -19 | 1% | -48* | -1% | -7%
Cc1ccc(Nc2c(-c3ccc(C)s3)nc3cccc(C)n23)cc1 | -11 | x | x | x | x
CS(=O)(=O)N1N=C(c2ccc3nccnc3c2)CC1c1ccccc1 (configuration not stated) | -15 | -15% | -88* | 5% | u
CS(=O)(=O)N1N=C(c2ccccc2)CC1c1ccc2nccnc2c1 (configuration not stated) | -4 | -18% | 0 | -2% | -1%
CC1=C(C(=O)Nc2cccc(C)n2)C(c2ccc3c(c2)OCO3)C2=C(CC(c3ccco3)CC2=O)N1 (configuration not stated) | 27 | 18µM* | -4 | u | 0%
COc1ccc(NC(=O)NC(C)(C(F)(F)F)C(F)(F)F)cc1 | -17 | 0% | -79* | -2% | 1%
CN(CCCN(Cc1ccc(Cl)cc1)c1ccc(Br)cn1)C(=S)NCCCc1cnc[nH]1 | -6 | x | x | x | x
Cc1cc(C(=O)Nc2nnc(C(F)(F)F)s2)cs1 | 2 | 1% | -34* | u | -1%
Cc1cc(C(=O)Nc2nnc(C(F)(F)F)s2)no1 | 9 | -9% | 0 | -6% | 1%
COc1cc(S(=O)(=O)n2ccc(C)n2)ccc1Cl | -8 | 0% | -48* | 0% | 1%
CCC1CC=CC2C1C(=O)N(Cc1ccccc1)C2c1ccoc1 (configuration not stated) | 15 | x | x | x | x
NNC(=O)CP(=O)(c1ccccc1)c1ccccc1 | -9 | 0% | 1 | -2% | 6%
O=C(CP(=O)(c1ccccc1)c1ccccc1)Nn1cnnc1 | -27 | -6% | -53* | 2% | -3%
COC(=O)C(C)Oc1ccc2c(c1)O/C(=C\c1ccco1)C2=O (configuration not stated) | 15 | 21µM* | 2 | u | -2%
C=C1CCN(C(Cc2ccccc2)C(=O)NC2CCN(Cc3ccccc3)CC2)S(=O)(=O)c2ccccc21 (configuration not stated) | 9 | x | x | x | x
CCC(C)NC(=O)c1c(N)n(/N=C/c2cccnc2)c2nc3ccccc3nc12 (configuration not stated) | -7 | 3.3µM*[inhibitor] | -4 | u | -2%
Cc1ccc(S(=O)(=O)NCCC(=O)Oc2ccc3ccc(=O)oc3c2)cc1 | 10 | 12µM* | -1 | u | -7%
Cc1ccc(-c2nc(N3CCN(S(=O)(=O)c4ccc(F)cc4)CC3)c3ccc(Cl)cc3n2)cc1 | -12 | x | x | x | x
O=C(Nc1cc(-c2nc3ncccc3o2)ccc1Cl)c1ccc([N+](=O)[O-])o1 | -83* | 29% | -1 | 1% | 2%
O=C(Nc1ccccn1)c1ccc([N+](=O)[O-])o1 | -93* | -3% | -6 | 1% | 0%

# Single records, as listed above. Screens in order: Giardia kill, Rango release inh, CCT modulator, Rango-impB inh, MmCpn inh
# `O=C(Nc1ccccn1)c1ccc([N+](=O)[O-])o1` is listed with -93*, -3%, -6, 1%, 0%
# `CC1=C(C(=O)Nc2cccc(C)n2)C(c2ccc3c(c2)OCO3)C2=C(CC(c3ccco3)CC2=O)N1` (configuration not stated) is listed with 27, 18µM*, -4, u, 0%
# `COc1cc(S(=O)(=O)n2ccc(C)n2)ccc1Cl` is listed with -8, 0%, -48*, 0%, 1%

# Compound activity (PubChem)
